Results from ChEMBL document CHEMBL2074416, “High-affinity interaction of tyrosine kinase inhibitors with the ABCG2 multidrug transporter” (Mol Pharmacol, 2004).

Protein sequences, listed by entry. Tags and fused reporters are not part of them. Lines headed by an entry give the natural chain unless they say otherwise; changes in a name come on top.
UniProt Q9UNQ0: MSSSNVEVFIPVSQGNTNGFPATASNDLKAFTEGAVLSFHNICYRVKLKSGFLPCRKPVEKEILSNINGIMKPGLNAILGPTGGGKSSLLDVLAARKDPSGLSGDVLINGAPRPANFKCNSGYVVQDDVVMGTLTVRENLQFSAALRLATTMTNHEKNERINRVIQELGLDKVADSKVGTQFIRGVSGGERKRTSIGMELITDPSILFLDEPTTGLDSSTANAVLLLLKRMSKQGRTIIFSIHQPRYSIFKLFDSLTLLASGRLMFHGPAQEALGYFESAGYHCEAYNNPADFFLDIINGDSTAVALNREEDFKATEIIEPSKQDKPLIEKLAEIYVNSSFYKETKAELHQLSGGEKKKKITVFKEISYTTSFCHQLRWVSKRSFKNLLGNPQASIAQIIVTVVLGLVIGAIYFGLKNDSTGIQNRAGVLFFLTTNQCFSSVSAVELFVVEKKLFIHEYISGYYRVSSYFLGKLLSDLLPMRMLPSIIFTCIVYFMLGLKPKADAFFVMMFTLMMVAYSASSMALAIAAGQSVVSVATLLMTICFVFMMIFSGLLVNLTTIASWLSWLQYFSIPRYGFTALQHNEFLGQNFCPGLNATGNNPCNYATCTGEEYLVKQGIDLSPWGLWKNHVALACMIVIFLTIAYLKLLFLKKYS

Molecular target: Broad substrate specificity ATP-binding cassette transporter ABCG2 (Homo sapiens, UniProt Q9UNQ0)
Assay: TP_TRANSPORTER: efflux of Hoechst33342 in BCRP-expressing Sf9 cells
Assay type: functional

IC50: 400 nM
SMILES: COc1cc2ncnc(Nc3ccc(F)c(Cl)c3)c2cc1OCCCN1CCOCC1 [GEFITINIB]
